# Ab-14 heavy chain CDR variants: yeast mating affinities

Source: Li et al. 2023 (doi:10.1038/s41467-023-39022-2), MIT Lincoln Laboratory and A-Alpha Bio; data file from the FLAb repository.

Binding partner: SARS-CoV-2 spike HR2 peptide, sequence PDVDLGDISGINAS.

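The variants were designed computationally from a first round of random CDR variants and then made and measured. Group labels follow the data file (Ctrl: baseline library sampled from a position-specific scoring matrix, with some repeated check sequences; Rand: our label for a block that the file lists under HC and that is probably the random mutants of the ten best first-round binders; GP: Gaussian process model; GPLM: also part of the Gaussian process libraries; HC: hill climbing; Gen: genetic algorithm; Gibbs: Gibbs sampling; a sequence that several methods proposed may carry one label only). Affinity was read by AlphaSeq, a pooled yeast mating assay with surface-displayed partners. Pairs that bind mate more often; barcode pairs of the diploids are counted by sequencing. Each replicate has its own calibration line, from reference interactions of the BCL2 family. The assay was run in six technical replicates.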

Parent: Ab-14, a human scFv built as VH, the linker GGGGSGGGGSGGGGS, VL. Only the CDRs of the heavy chain vary.
VH: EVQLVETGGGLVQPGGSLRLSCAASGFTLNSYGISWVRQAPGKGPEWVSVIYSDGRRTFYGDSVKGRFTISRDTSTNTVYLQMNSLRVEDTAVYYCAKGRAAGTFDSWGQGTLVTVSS
VL: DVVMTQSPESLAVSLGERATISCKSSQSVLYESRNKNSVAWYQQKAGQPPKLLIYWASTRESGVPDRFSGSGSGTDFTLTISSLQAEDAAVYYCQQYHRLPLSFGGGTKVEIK

Substitutions are numbered in sequence along the VH above, starting at 1 (not Kabat). This list holds designs with at most six substitutions. Kd is apparent (estimated from mating counts) and averaged on the log scale over replicates with a signal. Smaller is tighter. A pair that was not seen in any replicate is written "no signal"; this usually means weak binding, but a binder can also be missed. Order: sorted from the lowest average up, undetected variants last.

changes,group,apparent Kd,replicates with signal
S31E G61S A101E,GP_HC,130 pM,6/6
T28S S31T G61A,GPLM_Gen,240 pM,5/6
T28S S31E G61H R100S,GPLM_Gen,570 pM,6/6
T28D S63E A101T S107E,GP_Gibbs,700 pM,6/6
T28Q S31E A101T S107T,GP_Gen,850 pM,6/6
T28H G61H A101E,GP_Gibbs,910 pM,6/6
S31E G61D A101E S107M,GP_HC,920 pM,6/6
T28D G61A R100A,GPLM_Gen,1.2 nM,6/6
T28D R100E A101E,GP_Gen,1.4 nM,6/6
S63R R100N A101E S107T,GP_Gibbs,1.8 nM,6/6
T28D F59A T104S,GPLM_HC,1.9 nM,6/6
T28D G61H R100K,GP_Gen,2.1 nM,6/6
N30E S53A S107C,Ctrl+GP_Gen,2.3 nM,5/12
T28S S31E G61A S63M A101T,GP_Gen,2.7 nM,6/6
R56Q A101V S107K,GP_Gibbs,2.8 nM,5/6
T28Q G61A R100Q,GPLM_Gen,2.8 nM,6/6
T28S S63R R100K A101T,GP_Gen,3.4 nM,3/6
T28E G61A R100W A101M,GP_Gen,3.5 nM,6/6
T28S R100K A101I,GPLM_Gen,3.7 nM,6/6
T28S S31A A101T,GPLM_Gen,4.3 nM,6/6
T28D G61I S63T R100N,GP_Gibbs,4.6 nM,6/6
T28S G61V A101E,GPLM_Gibbs,4.9 nM,3/6
N30E A101N,GPLM_Gibbs,5.5 nM,2/6
T28R G61D R100Q A101E,GP_HC,6.2 nM,6/6
T28D R56K G61Q S63K A101T,GP_Gibbs,7.1 nM,5/6
G26I N30E S53A,GP_HC,7.3 nM,1/6
N30E S31W G61A,GP_HC,11 nM,1/6
S53A R100Q D106Q,GP_HC,13 nM,5/6
N30E S31R,GP_HC,15 nM,5/6
S31Q S63D S107Q,Ctrl,16 nM,2/6
S63N R100Q A101T S107T,GP_Gen,17 nM,6/6
R56K S63A R100E S107L,GPLM_Gibbs,24 nM,5/6
G26K T28S S31E A101H,GP_Gen,27 nM,6/6
G61A A102P D106P,Ctrl,29 nM,6/6
S31D D62Q K65V S107T,Ctrl,34 nM,1/6
G26R D106R,Ctrl,54 nM,5/6
L29N I51M,Ctrl,75 nM,2/6
A101H F105W,Ctrl,75 nM,1/6
I34V G61I R100E,Ctrl,79 nM,5/6
T28D F59M K65V R100V A102C,Ctrl,95 nM,6/6
R56L G61T T104A,Ctrl,100 nM,4/6
N30E S53A S63K D106K,GP_HC,130 nM,1/6
S31E S53L F59G G103V S107E,Rand,410 nM,1/6
S31E R56W R100M S107N,Ctrl,550 nM,1/6
G61D R100Q G103F D106S,Ctrl,no signal,0/6
Y32H S53D G99D R100G,Ctrl,no signal,0/6
S31E G61I D106T,GP_HC,no signal,0/6
G61H G99L D106S,Ctrl,no signal,0/6
S31E G103L D106E S107L,GP_HC,no signal,0/6
T28G G33S,Ctrl,no signal,0/6
T28N I34Y,Ctrl,no signal,0/6
T28D A101T T104M D106N,GP_HC,no signal,0/6
T28N G61K D106P,Ctrl,no signal,0/6
N30S S35H G61K,Ctrl,no signal,0/6
S31E G61T R100K,GP_HC,no signal,0/6
R56Y G61D R100K D106W,Ctrl,no signal,0/6
S31D G61A A102E S107L,Ctrl,no signal,0/6
F27R G61A S63E,Ctrl,no signal,0/6
S53A R100V A101D G103V,Ctrl,no signal,0/6
G103W,Ctrl,no signal,0/6
T28Q S31D G61T D106I,GP_HC,no signal,0/6
S53A G55M F59Q S63T F105N D106K,Rand,no signal,0/6

The 4 strongest on average among those seen in every replicate, once more:

| changes | group | apparent Kd | replicates with signal |
|---|---|---|---|
| S31E G61S A101E | GP_HC | 130 pM | 6/6 |
| T28S S31E G61H R100S | GPLM_Gen | 570 pM | 6/6 |
| T28D S63E A101T S107E | GP_Gibbs | 700 pM | 6/6 |
| T28Q S31E A101T S107T | GP_Gen | 850 pM | 6/6 |

A sequence that the file lists under several names has all its replicates pooled. Of ten entries with the parent sequence, four were seen in most replicates (averages 2.2 nM to 240 nM), three in one and three in none, so single entries are noisy. Background: pairings of all heavy chain designs with three empty control strains gave a value in 1% of cases (median 120 nM, 5th percentile 7.0 nM). Values in that range, when seen in few replicates, are hard to tell from nonspecific mating. A sequence measured in both rounds can read differently, since the two assays cover different ranges. In the paper, a design with two or fewer of six values counts as a poor binder.